Results on eleven compounds are retold here after patent US10030016B2 (Sunesis Pharmaceuticals, Inc., priority 2009, dated 2018).

By UniProt entry, the sequences of proteins in these tests, tags left out. Residues count along the entry.
UniProt O15530, 51-359 limits assumed: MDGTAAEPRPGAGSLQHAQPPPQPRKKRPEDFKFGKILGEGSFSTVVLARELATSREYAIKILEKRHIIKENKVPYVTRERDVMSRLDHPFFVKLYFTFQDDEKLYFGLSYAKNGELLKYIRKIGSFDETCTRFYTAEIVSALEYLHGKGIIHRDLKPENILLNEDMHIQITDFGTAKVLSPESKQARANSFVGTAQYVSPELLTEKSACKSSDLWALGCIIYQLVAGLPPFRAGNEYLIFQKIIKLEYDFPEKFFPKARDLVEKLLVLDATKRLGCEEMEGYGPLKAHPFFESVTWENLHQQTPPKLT

SMILES strings stand for the structures.

For one test, the target named is PDK1 (Homo sapiens (Human), UniProt O15530). The experiment in a line: PDK1 kinase assay (coupled PDK1/AKT/FAM-crosstide assay, IMAP fluorescence polarization). In kind it is biochemical. In general terms: In fluorescence polarisation assays a small probe gives low polarisation when free and higher when bound to something large.
The test system of test [1] is phospho-akt (Thr308) in PC-3 cells. The experiment in a line: Inhibition of phospho-akt (Thr308) in PC-3 cells, MSD phospho-akt 308 ELISA kit. The following applies: 2 hours, no serum. A general note: ELISA stands for enzyme-linked immunosorbent assay.
Setting [2] is: inhibition of phospo-PDK1 in vitro.
Where [3] appears, read: inhibition of P308 Akt in PC-3 cells, MSD.

For `Cc1nc(-c2ccc(CNc3ncc(C#N)nc3C(=O)N[C@@H](C)c3ccc(F)c(F)c3)cc2)c2c(N)nccn12`, the IC50 on PDK1 (inhibition of PDK1 in vitro) is below 100 nM. In test [1] (inhibition of P308 Akt in PC-3 cells using MSD), this compound yielded an EC50 of 1000 to 10000 nM.
`CN(C)c1ncnc2ccc(-c3ccc(CNc4ncccc4C(=O)NCc4ccc(F)c(F)c4)s3)cc12` showed an IC50 on PDK1 (setting [2]) below 100 nM. The EC50 in test [1] (setting [3]) fell in the range of 1000 to 10000 nM.
Turning to `CCCCCNc1ncnc2ccc(-c3ccc(CNc4ncccc4C(=O)NCc4ccc(F)c(F)c4)s3)cc12`, the IC50 at PDK1 (setting [2]) is 1000 to 5000 nM. Besides, in test [1] (setting [3]), the EC50 was above 10000 nM.
`Nc1ncnc2ccc(-c3ccc(CNc4ncc(C(=O)O)cc4C(=O)NCc4ccc(F)c(F)c4)s3)cc12`: the IC50 against PDK1 (setting [2]) was below 100 nM. The same compound displayed an EC50 in test [1] (setting [3]) above 10000 nM.
`O=C(NCc1ccc(F)c(F)c1)c1cccnc1NCc1ccc(-c2ccc3ncnc(N4CCCC4)c3c2)s1` showed an IC50 against PDK1 (setting [2]) of 100 to 1000 nM. The same compound registered an EC50 in test [1] (setting [3]) above 10000 nM.
Take `CCCNc1ncnc2ccc(-c3ccc(CNc4ncccc4C(=O)NCc4ccc(F)c(F)c4)s3)cc12`: the IC50 against PDK1 (setting [2]) is below 100 nM. The compound also yielded an EC50 in test [1] (setting [3]) of 1000 to 10000 nM.
For the compound `C[C@H](NC(=O)c1cc(C#N)cnc1NCc1ccc(-c2cnc(N)c(CN(C)C)n2)cc1)c1ccc(F)cc1`, the IC50 against PDK1 (tested form: TFA) fell in the range of 100 to 1000 nM. The compound also showed a concentration giving a half-maximal response (EC50) in test [1] (inhibition of P308 Akt in PC-3 cells using MSD, tested form: TFA) above 10000 nM.
The compound `CONc1ncnc2ccc(-c3ccc(CNc4ncccc4C(=O)NCc4ccc(F)c(F)c4)s3)cc12` displayed an IC50 at PDK1 (setting [2]) below 100 nM. For the same compound, in test [1] (setting [3]), the EC50 lay in the range of 1000 to 10000 nM.
The corresponding values for `O=C(NCc1ccc(F)c(F)c1)c1cccnc1NCc1ccc(-c2ccc3ncncc3c2)s1` are below 100 nM and above 10000 nM.
In turn, `CCNc1ncnc2ccc(-c3ccc(CNc4ncccc4C(=O)NCc4ccc(F)c(F)c4)s3)cc12` gave an IC50 against PDK1 (setting [2]) below 100 nM. This compound showed an EC50 in test [1] (setting [3]) below 1000 nM.
`CCN(CC)c1ncnc2ccc(-c3ccc(CNc4ncccc4C(=O)NCc4ccc(F)c(F)c4)s3)cc12`: at PDK1 (setting [2]), the IC50 is below 100 nM. In test [1] (setting [3]), this compound had an EC50 above 10000 nM.

What is called IC50 is the point on the concentration scale where inhibition reaches its midpoint. What is called EC50 is the concentration giving half of the maximal effect.
